Compounds with a hit are over-represented: about 2.3% of the library has one in this group of screens.
MC4R antag cAMP: blocks human MC4R cAMP signaling. P32245. MC4R-expressing cells, MTII-stimulated cAMP, LANCE TR-FRET. inhibition, % at 6.5 µM. 0.48% of 360,000 active;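 active = inhibition above its plate's cutoff, the mean of tested wells on that plate plus 3 SD, cut at about 29% in these data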
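System – human MC4R-expressing U2OS cells · Also added – Melanotan II · Dosing – one concentration, 6.5 µM nominal · Timing – 30-min compound, 1-h challenge, 1-h detection, room temperature · Measured by – Eu-cAMP/anti-cAMP TR-FRET, emission 671 nm · Replicates – singlicate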
MC4R ag barr: agonists of human melanocortin 4 receptor (MC4R) beta-arrestin | P32245 | U2OS MC4R beta-arrestin complementation, luminescence; percent of melanotan II response, DMSO zero | activation, % at 8.9 µM | 0.98% of 360,000 active;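 active = activation above a per-plate cutoff, the mean activation of sample wells on that plate plus 3 SD, cut at about 8% in these data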
ASAP1 GAP inh: inhibitors of human ASAP1 ArfGAP activity; Q9ULH1; ASAP1-stimulated ARF1 GTP hydrolysis, GDP FP detection; inhibition, % at 16.5 µM; 0.19% of 360,000 active; in the data active = inhibition above about 25%
ARFGAP1 inhibitor: inhibitors of rat ARFGAP1. Arfgap1-stimulated ARF1 GTP hydrolysis, GDP FP detection. inhibition, % at 16.5 µM. 0.26% of 360,000 active. AID 651572;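 active = inhibition above a per-plate limit, mean inhibition of low control wells plus 3 SD, cut at about 25% in these data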
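System: truncated rat Arfgap1 GAP domain / Benchmarks: high control wells lacking Arfgap1, low control full reaction with DMSO / Times: compound-enzyme preincubation 20 min, reaction 120 min, detection 60 min, 25 °C / Repeats: one replicate per compound / Also added: human ARF1(Δ1-17)-GTP substrate / Measured by: Tracer-displacement fluorescence polarization with EDTA stop, 620/688 nm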
CendR NRP1 mod: NRP-1/CendR interaction modulation. O14786. FAM-RPARPAR peptide binding to NRP-1, fluorescence polarization. inhibition, % at 25 µM. 0.85% of 360,000 active. AID 602438;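 active = inhibition or corrected inhibition above about 18%, plus a signal ratio from 0.5 to 1.5, limit read from the data, passing the limit was not always enough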
UUG fidelity: modulators of yeast start codon fidelity, primary screen, whole organism, S. cerevisiae, single point, plate reader; S. cerevisiae UUG-firefly luciferase reporter, luminescence/redox ratio; activity score, % at 18.7 µM; 0.13% of 350,000 active; AID 602363, 2012;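 active = replicate mean at a twofold rise or more, about +100% in these data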;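 also: firefly luciferase made from a UUG start codon reports start codon fidelity; reporter light over untreated wells divided by growth signal over untreated wells; some hits fall short of that in this replicate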
cAMP nonselect: nonselective cAMP signaling inhibitor, MC4R antagonist counter-screen | shares compounds with MC4R antag cAMP | parental U2OS, forskolin cAMP, LANCE TR-FRET | inhibition, % at 6.5 µM | 26% of 1,600 active | AID 602193;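 active = mean inhibition over triplicates above the low-control well mean plus 3 SD, set per campaign, cut at about 13% in these data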;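 note: signal is single emission at 671 nm which falls as cellular cAMP rises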
MC4R cAMP antag: human MC4R cAMP antagonism confirmation | MC4R-expressing cells, MTII-stimulated cAMP, TR-FRET | shares compounds with MC4R antag cAMP | 27% of 1,600 active | AID 602195 | inhibition, % at 6.5 µM; in the data active = inhibition above about 29%
Large screens that a line does not name were inactive (follow-up assays come after a bar, where they were run).

CC(C)c1ccc(Nc2nnc(SC3CCOC3=O)s2)cc1 (centres undefined)	MC4R antag cAMP 31 | cAMP nonselect 41 | MC4R cAMP antag 33
COC(=O)C[C@@H]1C[C@H]2c3cc(NC(=O)Nc4ccc(C(F)(F)F)cc4)ccc3O[C@H]2[C@H](CO)O1	none (no result: MC4R antag cAMP, MC4R ag barr, ASAP1 GAP inh, ARFGAP1 inhibitor, CendR NRP1 mod)
Cc1ccc2[nH]c3c(=S)nc[nH]c3c2c1	MC4R antag cAMP 48 (no result: UUG fidelity) | cAMP nonselect inactive | MC4R cAMP antag inactive
Cc1ccc2[nH]c3c(=O)n(N)c(C)nc3c2c1	none
c1ccc(-c2nnc(OCc3cccnc3)c3ccccc23)cc1	MC4R antag cAMP 29 | cAMP nonselect inactive | MC4R cAMP antag inactive
Cc1ccc(-c2nnc(OCc3cccnc3)c3ccccc23)cc1	none
CCNC(=O)Nc1ccc2c(c1)C(=O)N(C)[C@H]1CC[C@@H](CC(=O)NCc3ccccc3F)O[C@@H]1CO2	none (no result: MC4R antag cAMP, MC4R ag barr, ASAP1 GAP inh, ARFGAP1 inhibitor, CendR NRP1 mod)
CC(=O)N1CCn2c3c(c4cc(C)ccc42)CCCC31 (centres undefined)	none
Cc1ccc2c(c1)c1c3n2CCN(C(=O)CCl)C3CCC1 (centres undefined)	MC4R antag cAMP 38 | cAMP nonselect inactive | MC4R cAMP antag 29
O=C(NCC(c1cccs1)N1CCOCC1)c1cccnc1 (centres undefined)	none (no result: ASAP1 GAP inh, ARFGAP1 inhibitor)
O=C(NCC(c1cccs1)N1CCOCC1)c1cnc(Cl)c(Cl)c1 (centres undefined)	MC4R antag cAMP 30 | cAMP nonselect 17 | MC4R cAMP antag 38
COc1ccccc1Cn1c(=S)[nH]c2ccc(F)cc2c1=O	MC4R antag cAMP 65 | cAMP nonselect 50 | MC4R cAMP antag 100
C[C@H]1CN([C@@H](C)CO)S(=O)(=O)c2ccc(-c3ccc(F)cc3)cc2O[C@H]1CN(C)CC1CC1	none (no result: MC4R antag cAMP, MC4R ag barr, ASAP1 GAP inh, ARFGAP1 inhibitor, CendR NRP1 mod)
CC(C)CC#Cc1cnc2c(c1)C(=O)N([C@@H](C)CO)C[C@H](C)[C@@H](CN(C)C(=O)C1CCOCC1)O2	none (no result: MC4R antag cAMP, MC4R ag barr, ASAP1 GAP inh, ARFGAP1 inhibitor, CendR NRP1 mod)
O=C(O)c1cccc2c1C(=O)c1ccc(N3CCN(Cc4ccc5c(c4)OCO5)CC3)cc1S2(=O)=O	MC4R antag cAMP 33 | cAMP nonselect inactive | MC4R cAMP antag inactive
CC1CCN(c2ccc3c(c2)S(=O)(=O)c2cccc(C(=O)O)c2C3=O)CC1	none
COc1ccc(OCC(=O)Nc2ccc3c(c2)OCO3)cc1	none
O=C(COc1ccc([N+](=O)[O-])cc1)Nc1ccc2c(c1)OCO2	MC4R antag cAMP 32 (no result: UUG fidelity) | cAMP nonselect inactive | MC4R cAMP antag inactive
O=C(CSc1nccc(=O)[nH]1)Nc1ccccc1Sc1ccccc1	MC4R antag cAMP 31 (no result: UUG fidelity) | cAMP nonselect inactive | MC4R cAMP antag inactive
C/C=C/c1ccc([C@H]2[C@H]3CN(C(=O)Nc4ccccc4F)CCCCN3[C@H]2CO)cc1	none (no result: MC4R antag cAMP, MC4R ag barr, ASAP1 GAP inh, ARFGAP1 inhibitor, CendR NRP1 mod)
Cc1ccccc1-n1c(SCC(=O)Nc2c(C)cccc2C)nc(O)cc1=O	MC4R antag cAMP 34 | cAMP nonselect inactive | MC4R cAMP antag inactive
COc1ccccc1-n1c(SCC(=O)Nc2ccc(C)cc2)nc(O)cc1=O	none
C[C@@]12C(=O)N(Cc3ccccc3)CC(=O)N1[C@H]1c3ccccc3OC[C@@H]1[C@@H]2c1ccccc1	MC4R antag cAMP 29 | cAMP nonselect inactive | MC4R cAMP antag inactive
O=C1NC(=O)/C(=C\c2ccccc2OCc2ccccc2)S1	MC4R antag cAMP 39 | cAMP nonselect inactive | MC4R cAMP antag inactive
CC(C)(C)c1nc(SCC(=O)NC2CCCC2)c2ccccc2n1	MC4R antag cAMP 29 | cAMP nonselect inactive | MC4R cAMP antag inactive
COc1ccccc1-c1coc2cc(OCC(=O)OCc3ccccc3)ccc2c1=O	none (no result: UUG fidelity)
COc1ccccc1-c1c(C)oc2cc(OCC(=O)OCc3ccccc3)ccc2c1=O	MC4R antag cAMP 37 (no result: UUG fidelity) | cAMP nonselect 14 | MC4R cAMP antag 38

Screening data from PubChem.
